The numbers were not newly measured in US20240285642A1, “EGFR INHIBITOR FOR THE TREATMENT OF HEAD AND NECK CANCER” (NATCO PHARMA LIMITED, priority 2021, published 2024), which cites them from elsewhere.

This data set relates to R/M HNSCC. The following applies: combined with platinum-based chemotherapy; cited from earlier work.

In the case of “cetuximab: approved monoclonal antibody, EGFR inhibitor”, the ORR is reported as 35.6%.
